Values of other authors in patent US20240374523A1, “STABILIZED APILIMOD COMPOSITIONS AND USES THEREOF” (Orphai Therapeutics Inc., priority 2021, published 2024).

Conditions: rodent models (mice, rats), after gastrointestinal absorption (Patty's Industrial Hygiene and Toxicology); cited from earlier work

C=Cc1ccccn1 [2-vinyl pyridine]
toxic effects: weakness, ataxia, vasodilation, respiratory distress, and convulsions
